This passage reports growth inhibition results from PubChem BioAssay (NCI).

Assay [1] can be described thus: NCI Yeast Anticancer Drug Screen. Data for the rad50 strain (AID 155).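 Note: 0% = growth of vehicle-only cultures of the same strain.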 To be noted: S. cerevisiae rad50 strain growth inhibition, active compounds read high.
Assay [2] can be described thus: NCI Yeast Anticancer Drug Screen. Data for the mec2-1 strain (AID 157). To be noted: S. cerevisiae mec2-1 strain, active compounds read high.
Assay [3] can be described thus: NCI Yeast Anticancer Drug Screen. Data for the sgs1 mgt1 strain (AID 161).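 Note: 0% = growth of cultures given vehicle only.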 To be noted: S. cerevisiae sgs1 mgt1 strain, active compounds read high.
Assay [4] in a line: NCI Yeast Anticancer Drug Screen. Data for the cln2 rad14 strain (AID 165).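 Note: 0% = growth equal to vehicle treated cultures.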 To be noted: S. cerevisiae cln2 rad14 strain, active compounds read high.
The nature of assay [5]: NCI Yeast Anticancer Drug Screen. Data for the bub3 strain (AID 167). To be noted: S. cerevisiae bub3 mutant strain, active compounds read high.
Assay [6] in a line: NCI Yeast Anticancer Drug Screen. Data for the mlh1 rad18 strain (AID 175). The note with it: S. cerevisiae mlh1 rad18 strain growth inhibition, active compounds read high.
The mark [7] stands for this setting: at 5.0 µM (retest, dose inferred, filed as 0.5).
The mark [8] stands for this setting: at 50.0 µM (retest, dose inferred, filed as 5.0).

Only a part is listed here, and it is no random draw. The source holds several records for some structures; these can differ, active in one and inactive in another. The source made the active and inactive calls. Cut-off read from the data, not from the text of the source: active = growth inhibition above about 70%; inactive = the rest.

Consider `Cc1ccc([N+](=O)[O-])c(C[N+](C)(CCCl)CCCl)c1`, for which the growth inhibition in assay [1] (at 1.2 µM) was inactive: 6%; in assay [1] (at 3.7 µM), inactive: 43%; in assay [1] (setting [7]), inactive: 17%; in assay [1] (at 11.0 µM) it was active: 86%; in assay [1] (at 33.0 µM) it was active: 95%; in assay [1] (setting [8]) it was active: 87%. Also, the growth inhibition was active: 85.4% in assay [1] (at 50.0 µM); active: 96% in assay [1] (at 100.0 µM); inactive: -16% in assay [2] (at 1.2 µM); inactive: 7% in assay [2] (at 3.7 µM); inactive: 2% in assay [2] (setting [7]); inactive: 31% in assay [2] (at 11.0 µM). Besides, the growth inhibition in assay [2] (at 33.0 µM) is active: 88%; in assay [2] (setting [8]) it was active: 90%; in assay [2] (at 50.0 µM), active: 86.7%; in assay [2] (at 100.0 µM), active: 95%; in assay [3] (setting [7]) it was inactive: 32%; in assay [3] (setting [8]), inactive: 61%. Moreover, the growth inhibition in assay [3] (at 50.0 µM) was active: 74.6%; in assay [4] (setting [7]), inactive: 34%; in assay [4] (setting [8]), active: 88%; in assay [4] (at 50.0 µM), active: 78.6%; in assay [5] (at 1.2 µM), inactive: -8%; in assay [5] (at 3.7 µM), inactive: -8%. Further, the growth inhibition in assay [5] (setting [7]) was inactive: 0%; in assay [5] (at 11.0 µM), inactive: -10%; in assay [5] (at 33.0 µM) it was inactive: 17%; in assay [5] (setting [8]), inactive: 62%; in assay [5] (at 50.0 µM), inactive: 29%; in assay [5] (at 100.0 µM) it was active: 87%. Besides, the values for the growth inhibition in assay [6] (setting [7]), in assay [6] (setting [8]) and in assay [6] (at 50.0 µM) were inactive: 50%, active: 93% and active: 87.6%, respectively.

In the case of `COc1ccc(C[N+](C)(CCCl)CCCl)c([N+](=O)[O-])c1`, the growth inhibition in assay [1] (at 1.2 µM) is inactive: 20%; in assay [1] (at 3.7 µM) it was inactive: 25%; in assay [1] (setting [7]), inactive: -22%; in assay [1] (at 11.0 µM) it was inactive: 40%; in assay [1] (at 33.0 µM) it was inactive: 58%; in assay [1] (setting [8]), inactive: 64%. The growth inhibition in assay [1] (at 50.0 µM) is active: 73.5%; in assay [1] (at 100.0 µM), inactive: 65%; in assay [2] (at 1.2 µM), inactive: 7%; in assay [2] (at 3.7 µM), inactive: 10%; in assay [2] (setting [7]) it was inactive: -22%; in assay [2] (at 11.0 µM) it was inactive: 18%. For the same molecule, the growth inhibition in assay [2] (at 33.0 µM) is inactive: 22%; in assay [2] (setting [8]), inactive: 19%; in assay [2] (at 50.0 µM), inactive: 42.5%; in assay [2] (at 100.0 µM), inactive: 26%; in assay [3] (setting [7]), inactive: -27%; in assay [3] (setting [8]) it was inactive: 8%. Also, the growth inhibition was inactive: 42.9% in assay [3] (at 50.0 µM); inactive: 2% in assay [4] (setting [7]); inactive: 32% in assay [4] (setting [8]); inactive: 65% in assay [4] (at 50.0 µM); inactive: -2% in assay [5] (at 1.2 µM); inactive: 3% in assay [5] (at 3.7 µM). Moreover, the growth inhibition in assay [5] (setting [7]) is inactive: -32%; in assay [5] (at 11.0 µM), inactive: 8%; in assay [5] (at 33.0 µM), inactive: 6%; in assay [5] (setting [8]), inactive: -18%; in assay [5] (at 50.0 µM), inactive: -9%; in assay [5] (at 100.0 µM), inactive: 3%. Further, the figures for the growth inhibition in assay [6] (setting [7]), in assay [6] (setting [8]) and in assay [6] (at 50.0 µM) were inactive: 2%, active: 81% and inactive: 67.9%, respectively.

As for `O=C1C(SCCCl)=C(SCCCl)C(=O)c2[nH]cnc21`, the growth inhibition in assay [1] (setting [7]) was active: 98%; in assay [1] (setting [8]) it was active: 96%; in assay [1] (at 50.0 µM), active: 93.5%; in assay [2] (setting [7]), active: 98%; in assay [2] (setting [8]), active: 97%; in assay [2] (at 50.0 µM), active: 94.7%. Further, the growth inhibition is active: 98% in assay [3] (setting [7]); active: 98% in assay [3] (setting [8]); active: 92.3% in assay [3] (at 50.0 µM); active: 96% in assay [4] (setting [7]); active: 97% in assay [4] (setting [8]); active: 93.5% in assay [4] (at 50.0 µM). In addition, the growth inhibition in assay [5] (setting [7]) was active: 77%; in assay [5] (setting [8]) it was active: 97%; in assay [5] (at 50.0 µM) it was active: 78.2%; in assay [6] (setting [7]), active: 98%; in assay [6] (setting [8]), active: 97%; in assay [6] (at 50.0 µM) it was active: 94%.

As for `CCC(=O)N(c1ccccc1)C1CCNCC1`, the growth inhibition in assay [1] (at 50.0 µM) was inactive: -27.5%; in assay [2] (at 50.0 µM), inactive: -44%; in assay [3] (at 50.0 µM), inactive: -19.9%; in assay [4] (at 50.0 µM), inactive: -1.05%; in assay [5] (at 50.0 µM), inactive: -7.2%; in assay [6] (at 50.0 µM) it was inactive: -27.8%.

As to `O=C(O)C1(Nc2ccccc2)CCN(Cc2ccccc2)CC1`, the growth inhibition is inactive: 16.4% in assay [1] (at 50.0 µM); inactive: -19.6% in assay [2] (at 50.0 µM); inactive: -25.4% in assay [3] (at 50.0 µM); inactive: -5.65% in assay [4] (at 50.0 µM); inactive: -36.2% in assay [5] (at 50.0 µM); inactive: 0.7% in assay [6] (at 50.0 µM).

For `C1CCNCC1.O=C(O)C(O)c1ccc(N(CCCl)CCCl)cc1` (configuration not stated), the growth inhibition is inactive: 8.9% in assay [1] (at 50.0 µM); inactive: -7.35% in assay [2] (at 50.0 µM); inactive: -2.55% in assay [3] (at 50.0 µM); inactive: 15.1% in assay [4] (at 50.0 µM); inactive: -21.6% in assay [5] (at 50.0 µM); inactive: 13% in assay [6] (at 50.0 µM).

As to `CC(C)=NOP(N)(=O)N(CCCl)CCCl` (configuration not stated), the growth inhibition in assay [1] (at 50.0 µM) is inactive: -18.3%; in assay [2] (at 50.0 µM) it was inactive: -33.5%; in assay [3] (at 50.0 µM) it was inactive: -24.6%; in assay [4] (at 50.0 µM) it was inactive: -8.6%; in assay [5] (at 50.0 µM), inactive: -36.6%; in assay [6] (at 50.0 µM) it was inactive: -58.2%.

Regarding `CCN(CC)Cc1cccc(N(CCCl)CCCl)c1`, the growth inhibition was active: 91% in assay [1] (setting [7]); active: 99% in assay [1] (setting [8]); inactive: 56.4% in assay [1] (at 50.0 µM); active: 71% in assay [2] (setting [7]); active: 99% in assay [2] (setting [8]); inactive: 26.2% in assay [2] (at 50.0 µM). For the same molecule, the growth inhibition in assay [3] (setting [7]) was active: 89%; in assay [3] (setting [8]) it was active: 99%; in assay [3] (at 50.0 µM) it was active: 71.2%; in assay [4] (setting [7]), active: 73%; in assay [4] (setting [8]), active: 92%; in assay [4] (at 50.0 µM), inactive: 48.4%. The growth inhibition in assay [5] (setting [7]) was active: 85%; in assay [5] (setting [8]), active: 95%; in assay [5] (at 50.0 µM), inactive: 66.8%; in assay [6] (setting [7]) it was active: 76%; in assay [6] (setting [8]), active: 98%; in assay [6] (at 50.0 µM), inactive: 69.8%.

For the molecule `O=C1CCN(CCc2ccccc2)CC1`, the growth inhibition was inactive: -1.2% in assay [1] (at 50.0 µM); inactive: -32.6% in assay [2] (at 50.0 µM); inactive: 0.7% in assay [3] (at 50.0 µM); inactive: 14.5% in assay [4] (at 50.0 µM); inactive: 3.9% in assay [5] (at 50.0 µM); inactive: 15.3% in assay [6] (at 50.0 µM).

For the molecule `CCCCCCCCC(=O)OCC(COP(=O)(Oc1ccccc1)N(CCCl)CCCl)OC(=O)CCCCCCCC` (configuration not stated), the growth inhibition was inactive: 4.75% in assay [1] (at 50.0 µM); inactive: -0.45% in assay [2] (at 50.0 µM); inactive: -18.6% in assay [3] (at 50.0 µM); inactive: -4.25% in assay [4] (at 50.0 µM); inactive: -4.05% in assay [5] (at 50.0 µM); inactive: 13.3% in assay [6] (at 50.0 µM).

For `NNP(=S)(NN)c1ccccc1`, the growth inhibition was inactive: 0% in assay [1] (setting [7]); inactive: 1% in assay [1] (setting [8]); inactive: 0.9% in assay [1] (at 50.0 µM); inactive: 0% in assay [2] (setting [7]); inactive: -20% in assay [2] (setting [8]); inactive: -11.4% in assay [2] (at 50.0 µM). For the same molecule, the growth inhibition in assay [3] (setting [7]) is inactive: -1%; in assay [3] (setting [8]) it was inactive: -2%; in assay [3] (at 50.0 µM), inactive: 42.7%; in assay [4] (setting [7]), inactive: -1%; in assay [4] (setting [8]) it was inactive: -2%; in assay [4] (at 50.0 µM), inactive: -18.2%. Moreover, the growth inhibition in assay [5] (setting [7]) is inactive: 2%; in assay [5] (setting [8]), inactive: 2%; in assay [5] (at 50.0 µM) it was inactive: -4.45%; in assay [6] (setting [7]) it was inactive: -3%; in assay [6] (setting [8]) it was inactive: -2%; in assay [6] (at 50.0 µM) it was inactive: 6.15%.

Turning to `Nc1cc([As](Cl)Cl)ccc1O`, the growth inhibition in assay [1] (at 50.0 µM) was inactive: 42.8%; in assay [2] (at 50.0 µM) it was inactive: 16.4%; in assay [3] (at 50.0 µM), inactive: 3.8%; in assay [4] (at 50.0 µM), inactive: -86.5%; in assay [5] (at 50.0 µM) it was inactive: 37.2%; in assay [6] (at 50.0 µM), inactive: 41.3%.
